Measured values from patent EP0639380B1, “Cyclodextrin inclusion product of taxol, process for producing the same, and its use” (Ensuiko Sugar Refining Company, Limited, priority 1993, dated 1995).

Conditions: 70 min
Protocol: 098 g of hydroxyethyl-β-CD in which, of 21 hydroxyl groups contained in one β -CD molecule, an average of 1.6 groups are substituted through an ether bond with a hydroxyethyl group (hereinafter referred to as HE-β-CD) or 0.090 g of hydroxypropyl-β-CD in which, of 21 hydroxyl groups contained in one β -CD molecule, an average of 0.9 groups are substituted through an ether bond with a hydroxypropyl group (hereinafter referred to as HP-β -CD), and the volume of each solution was adjusted to 10 ml to prepare aqueous CD solutions of a concentration of 6 mM.
To the solutions were added 2 mg each of taxol, and the resulting mixtures were stirred at room temperature (20 to 25°C) at 5,000 r.p.m. As a control, 2 mg of taxol were added to 10 ml of water, and the resulting mixture was stirred at room temperature (20 to 25°C) at 5,000 r.p.m. […] 45µm, and the concentration of taxol contained in the filtrates was determined by highperformance liquid chromatography (HPLC).
Then, 20 mg of taxol were added to the aqueous DM-β-CD solution, 2 mgof taxol to the aqueous HP-β-CD solution, and 1 mg each of taxol to the other aqueous CD solutions, and the resulting mixtures were stirred at room temperature (20 to 25°C) at 5,000 r.p.m. […] After 70 minutes of stirring, the solutions were passed through a filter with a pore diameter of 0.45µm, and the concentration of taxol contained in the filtrates was determined.

Solubility of Taxol: 0.4 µ g/ml
Solubilty of Taxol: 1.5 µ g/ml
Substance: 6-mono-O-maltosyl- γ -CD [G2-γ-CD]
